Data reported in patent US20190077795A1, “ARGININE […] INHIBITORS AND USES THEREOF” (Epizyme, Inc., priority 2014, published 2019).

Test system: mono-methyl arginine in RKO cells
Assay: RKO Methylation Assay, In Cell Western (ICW)
Type: cell-based
Settings: 72 hours
Excerpt: RKO adherent cells were purchased from ATCC (American Type Culture Collection), Manassas, Va., USA. DMEM/Glutamax medium, penicillin-streptomycin, heat inactivated fetal bovine serum, 0.05% trypsin and D-PBS were purchased from Life Technologies, Grand Island, N.Y., USA. Odyssey blocking buffer, 800CW goat anti-rabbit IgG (H+L) antibody, and Licor Odyssey infrared scanner were purchased from Licor Biosciences, Lincoln, Nebr., USA. Mono-methyl arginine antibody was purchased from Cell Signaling Technology, Danvers, Mass., USA. Methanol was purchased from VWR, Franklin, Mass., USA. 10% Tween 20 was purchased from KPL, Inc., Gaithersburg, Md., USA. DRAQ5 was purchased from Biostatus Limited, Leicestershire, UK. […]
First, the ratio for each well was determined by:
Each plate included fourteen control wells of DMSO only treatment (minimum activation) as well as fourteen control wells for maximum activation treated with 20 μM of a reference compound. The average of the ratio values for each control type was calculated and used to determine the percent activation for each test well in the plate. […] Percent activation was determined and EC30 curves were generated using triplicate wells per concentration of compound.

CNCCN(C)Cc1c[nH]nc1-c1ccc(O[C@H]2C[C@H](OCCC3CCOCC3)C2)cc1 [Compound 155, N1,N2-dimethyl-N1-((3-(4-(3-(2-(tetrahydro-2H-pyran-4-yl)ethoxy)cyclobutoxy)phenyl)-1H-pyrazol-4-yl)methyl)ethane-1,2-diamine bis(2,2,2-trifluoroacetate)]
ICW EC30: 1039 nM
